The source of these data is patent US10017459B2, “β-substituted β-amino acids and analogs as chemotherapeutic agents and uses thereof” (Quadriga Biosciences, Inc., priority 2015, dated 2018).

As usually defined, the IC50 is the concentration needed to halve the response being measured.

What all share (assay type): cell-based
One test has as its system DBRTG. Put plainly: In vitro cytotoxicity, DBRTG. The conditions noted are these: read-out: IC50 (in vitro toxicity), Glioblastoma, 30 min treatment, 72 hours growth.
A further test concerns 794. Put plainly: In vitro cytotoxicity, 794. The conditions noted are these: read-out: IC50 (in vitro toxicity); 794, Atypical teratoid/Rhabdoid Tumor; 30 min treatment, 72 hours growth.
The next test concerns D283. Put plainly: In vitro cytotoxicity, D283. Particulars: read-out: IC50 (in vitro toxicity); D283, Medulloblastoma; 30 min treatment, 72 hours growth.
A further test deals with MV411. Put plainly: In vitro cytotoxicity, MV411. The conditions noted are these: read-out: IC50 (in vitro toxicity); MV411, Acute Myeloid Leukemia; 30 min treatment, 72 hours growth.
A further test relates to Raji. Put plainly: In vitro cytotoxicity, Raji. The conditions noted are these: read-out: IC50 (in vitro toxicity), Lymphoma, 30 min treatment, 72 hours growth.
A further test concerns KMS34. Put plainly: In vitro cytotoxicity, KMS34. Particulars: read-out: IC50 (in vitro toxicity); KMS34, Multiple Myeloma; 30 min treatment, 72 hours growth.
For a further test, the system named is AMO1. Put plainly: In vitro cytotoxicity, AMO1. The conditions noted are these: read-out: IC50 (in vitro toxicity); AMO1, Multiple Myeloma; 30 min treatment, 72 hours growth.
In a further test the test system is U266. Put plainly: In vitro cytotoxicity, U266. Particulars: read-out: IC50 (in vitro toxicity); U266, Multiple Myeloma; 30 min treatment, 72 hours growth.
The subject of a further test is MM1.S. Put plainly: In vitro cytotoxicity, MM1.S. Particulars: read-out: IC50 (in vitro toxicity), Multiple Myeloma, 30 min treatment, 72 hours growth.
In another test the test system is HS27A. Put plainly: In vitro cytotoxicity, HS27A. The conditions noted are these: read-out: IC50 (in vitro toxicity), Multiple Myeloma, 30 min treatment, 72 hours growth.
For a further test, the system named is KMS11. Put plainly: In vitro cytotoxicity, KMS11. The conditions noted are these: read-out: IC50 (in vitro toxicity); KMS11, Multiple Myeloma; 30 min treatment, 72 hours growth.

Regarding `N[C@H](CC(=O)O)Cc1ccccc1N(CCCl)CCCl`, the IC50 in the test on DBRTG was less than 100 µM; in the test on 794, less than 100 µM; in the test with D283, less than 100 µM; in the test on MV411 it was less than 100 µM; in the test on Raji, less than 100 µM; with KMS34 it was more than 100 µM. The concentration for half-maximal inhibition (IC50) in the test on AMO1 was more than 100 µM; in the test on U266, less than 100 µM; in the test on MM1.S, less than 100 µM; with HS27A, more than 100 µM; with KMS11, more than 100 µM.
With `N[C@H](CC(=O)O)Cc1ccc(N(CCCl)CCCl)cc1`, the IC50 in the test on DBRTG was less than 100 µM; in the test on D283, less than 100 µM; with MV411 it was less than 100 µM; with Raji, less than 100 µM; with KMS34 it was more than 100 µM.
